The target in one experiment is T1, CYP5122A1 (Leishmania donovani, UniProt A0A3S7X0B6).
T1 sequence (A0A3S7X0B6 61-592): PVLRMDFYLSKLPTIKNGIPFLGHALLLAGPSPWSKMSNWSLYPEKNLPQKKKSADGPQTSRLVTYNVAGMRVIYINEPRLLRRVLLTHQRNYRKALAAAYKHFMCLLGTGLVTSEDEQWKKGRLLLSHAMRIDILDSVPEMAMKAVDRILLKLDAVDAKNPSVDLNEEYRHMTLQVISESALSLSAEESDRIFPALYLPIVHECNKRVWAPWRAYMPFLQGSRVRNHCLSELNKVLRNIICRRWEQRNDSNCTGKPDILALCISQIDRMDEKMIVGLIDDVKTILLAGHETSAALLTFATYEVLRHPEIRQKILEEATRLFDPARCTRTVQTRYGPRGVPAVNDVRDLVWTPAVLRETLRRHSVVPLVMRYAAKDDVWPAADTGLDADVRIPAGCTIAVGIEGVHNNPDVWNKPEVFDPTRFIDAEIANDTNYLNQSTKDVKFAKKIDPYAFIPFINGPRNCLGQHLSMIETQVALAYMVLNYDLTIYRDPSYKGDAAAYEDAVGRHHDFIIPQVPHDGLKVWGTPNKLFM
Details: gene LdCL_270005800.

Protein sequences, listed by entry. Tags and fused reporters are not part of them. Residues count along the entry.
UniProt A0A3S7WRS7, 32-480: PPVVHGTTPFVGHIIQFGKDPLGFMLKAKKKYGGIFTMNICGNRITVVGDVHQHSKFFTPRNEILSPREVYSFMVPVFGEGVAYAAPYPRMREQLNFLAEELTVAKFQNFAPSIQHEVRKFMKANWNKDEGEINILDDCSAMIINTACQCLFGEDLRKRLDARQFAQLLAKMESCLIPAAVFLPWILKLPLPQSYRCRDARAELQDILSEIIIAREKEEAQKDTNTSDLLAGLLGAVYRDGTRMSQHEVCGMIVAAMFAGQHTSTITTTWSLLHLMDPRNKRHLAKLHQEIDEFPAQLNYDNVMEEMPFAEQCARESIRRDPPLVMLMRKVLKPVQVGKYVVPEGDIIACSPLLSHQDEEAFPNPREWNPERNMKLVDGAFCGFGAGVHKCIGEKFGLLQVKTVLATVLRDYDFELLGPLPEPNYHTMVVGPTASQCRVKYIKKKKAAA

Another experiment has as its target T2, CYP51 (Leishmania donovani, UniProt A0A3S7WRS7).
T2 construct: gene LdCL_110017000; truncated form of XP_003859085.1 without the first 31 amino acids (transmembrane domain), N-terminal solubility tag, C-terminal His-tag
Kind of experiment: UV-Vis difference spectra (type II binding), plus BFC inhibition assay.

`CC[C@@H]([C@H](C)O)n1ncn(-c2ccc(N3CCN(c4ccc(OC[C@@H]5CO[C@@](Cn6cncn6)(c6ccc(F)cc6F)C5)cc4)CC3)cc2)c1=O` [posaconazole]: the “UV-Vis difference spectra (type II-like binding), plus BFC inhibition assay” value at CYP5122A1 is “Posaconazole exhibited type II binding to CYP51, but a type II-like binding to CYP5122A1”. The “UV-Vis difference spectra (type II binding), plus BFC inhibition assay” value at CYP51 is reported as “Posaconazole exhibited type II binding to CYP51, but a type II-like binding to CYP5122A1”.

Source of the values: publication PMC10402201, “CYP5122A1 encodes an essential sterol C4-methyl oxidase in Leishmania donovani and determines the antileishmanial activity of antifungal azoles” (Research Square, 2023).
